Water solubility values, as collected for the OPERA models

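The OPERA project collected these measurements from public sources as training and test data for property models. One number stands for a compound and property, with no spread given. Conditions of the individual experiments are not part of the data. The measured form (salt, isomer or mixture) is not always the one drawn. Some upstream entries may be estimates or bounds without being marked so.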

Water solubility is log10 of mol/L, nominally at 25 °C; higher is more soluble. "–" marks a cell with nothing listed here.

compound,name,water solubility (log10 mol/L)
CCCC1CCC(=O)CC1,4-Propylcyclohexanone,-1.855
O=c1nc(-c2ccccc2)[nH]c(-c2ccccc2)n1,"4,6-Diphenyl-1,3,5-triazin-2-ol",-5.494
O=C1CC(=O)NC=N1,"4,6(1H,5H)-PYRIMIDINEDIONE",-1.652
CCCCCCC1=CCCC1=O,2-Hexylcyclopent-2-enone,-2.819
C=C(O)[C@@H](N)CSCCCCCSC[C@H](N)C(=C)O,–,-2.907
C=C(C)C(=O)OCCOCCC[Si](C)(C)O[Si](C)(C)O[Si](C)(C)O[Si](C)(C)O[Si](C)(C)CCCC,–,-7.594
N#Cc1ccc(Nc2nccc(Cl)n2)cc1,4-[(4-Chloropyrimidin-2-yl)amino]benzonitrile,-5.439
O=C(O)C(=O)CO,Hydroxypyruvic acid,-0.318
CC1(C)NC(=O)N(Cc2ccccc2)C1=O,"Hydantoin, 3-benzyl-5,5-dimethyl-",-1.795
CCNC(=O)COC(=O)c1ccccc1OC(C)=O,2-(Ethylamino)-2-oxoethyl 2-(acetyloxy)benzoate,-1.682
CC(Oc1c(Cl)cccc1Cl)C1=NCCN1 (configuration not stated),Lofexidine,-3.246
N#Cc1ccc(Nc2nccc(=O)[nH]2)cc1,"4-[(6-Oxo-1,6-dihydropyrimidin-2-yl)amino]benzonitrile",-4.499
OCC(Cl)Cl,"2,2-Dichloroethanol",0.155
CCS(=O)(=O)CCn1c([N+](=O)[O-])cnc1C,Tinidazole,-1.912
CCCCCCCC/C=C\CCCCCCCCCCCCC,(Z)-9-Tricosene,-8.465
CCC[C@@H]1CC[C@@H](c2ccc(-c3cc(F)c(C(F)(F)Oc4cc(F)c(F)c(F)c4)c(F)c3)cc2)OC1 (relative stereo),–,-6.785
CN=C(O)O/N=C/c1ccc(Cl)cc1,"4-CL BENZALDEHYDE,O-((MEAM)CO)OXIME",-2.69
CCCc1ccc(-c2ccc(-c3ccc(CC)cc3)c(F)c2F)cc1,"4-Ethyl-2',3'-difluoro-4''-propyl-1,1':4',1''-terphenyl",-7.129
COc1cc(-c2cc(OC)cc(C(C)(C)C)c2O)c(O)c(C(C)(C)C)c1,"3,3'-Di-tert-butyl-5,5'-dimethoxy[1,1'-biphenyl]-2,2'-diol",-6.776
Cc1cccc(C)c1OCC(=O)N[C@@H](Cc1ccccc1)[C@@H](O)C[C@H](Cc1ccccc1)NC(=O)[C@H](C(C)C)N1CCCNC1=O,Lopinavir,-5.515
CC(CO)CCCC1CCCCC1 (configuration not stated),"Cyclohexanepentanol, .beta.-methyl-",-4.021
COc1ccc(C=CC(=O)OCCC(C)C)cc1,Amiloxate,-5.492
C[C@H](Cc1ccc(O)c(O)c1)[C@@H](C)Cc1ccc(O)c(O)c1,Masoprocol,-4.347
CCOC(=O)C(C)C1CCCCC1 (configuration not stated),"Cyclohexaneacetic acid, .alpha.-methyl-, ethyl ester",-3.327
O=C(O)c1cccc(I)c1,"Benzoic acid, 3-iodo-",-3.27
Clc1ccc(Oc2cc(Cl)c(Cl)c(Cl)c2)cc1Cl,"3,3',4,4',5-Pentachlorodiphenyl ether",-8.25
O=C(NC(=O)c1ccccc1)c1ccccc1,"Benzamide, N-benzoyl-",-2.27
CCOC(=O)/C(=C\c1ccc(OC)cc1)N=CO,Ethyl 2-formamido (4-methoxyphenyl) acrylate,-2.74
Cn1c(=O)cc2c3c(c(Br)ccc31)C(=O)c1ccccc1-2,"3H-Dibenz[f,ij]isoquinoline-2,7-dione, 6-bromo-3-methyl-",-6.68
Nc1ccc(S(=O)(=O)Nc2cnc3c(n2)CCCC3)cc1,–,-3.651
CN1CCCC(CC2c3ccccc3Sc3ccccc32)C1 (configuration not stated),Metixene,-6.482
COc1cc([N+](=O)[O-])ccc1N,2-Methoxy-4-nitroaniline,-3.205
C=CC(=O)Cc1c(C(C)c2cc(C(C)(C)CC)cc(C(C)(C)CC)c2O)cc(C(C)(C)CC)cc1C(C)(C)CC (configuration not stated),–,-8.039
C[C@@H]1CC(=O)NN=C1c1ccc(NN=C(C#N)C#N)cc1,Levosimendan,-3.503
CCCCC(CC)C1OCCN1CCOC(=O)NCCCCCCNC(=O)OCCN1CCOC1C(CC)CCCC (configuration not stated),–,-5.791
Cc1ccccc1N1CCN(CCc2nnc3n2CCCC3)CC1,Dapiprazole,-2.637
C/C=C(C)\C=C\C=C(C)C,"(4Z,6Z)-Alloocimene",-4.162
Clc1ccc(-c2ccc(-c3cc(Cl)ccc3Cl)cc2)cc1,"1,1':4',1''-Terphenyl, 2,4'',5-trichloro-",-8.91
CCCCC(CC)C(=O)OC (configuration not stated),Methyl 2-ethylhexanoate,-2.99
C=C(C)C(=O)OCCCCCCCCCC,Decyl methacrylate,-6.11
COC(CNC(=O)N(CCCl)N=O)n1c(=O)[nH]cc(F)c1=O (configuration not stated),–,-1.926
CC(C)C(O)C(C)(C)C(=O)O (configuration not stated),"2,2,4-Trimethyl-3-hydroxyvaleric acid",-0.897
CC(=O)N[C@@H](CC(=O)O)C(=O)O,(2S)-2-Acetamidobutanedioic acid,0.586
CCOC(=O)[C@H](CCc1ccccc1)N[C@@H](C)C(=O)N1[C@H](C(=O)O)C[C@H]2CCCC[C@@H]21,Trandolapril,-4.318
CCOC(=O)C1=NOC(c2ccccc2)(c2ccccc2)C1,"Ethyl 5,5-diphenyl-2-isoxazoline-3-carboxylate",-5.445
Cc1cc(=O)n(-c2ccc(S(=O)(=O)O)cc2)[nH]1,1-(4-Sulfophenyl)-3-methyl-5-pyrazolone,-1.673
OC(c1ccccc1)c1nc2ccccc2[nH]1 (configuration not stated),2-Hydroxybenzylbenzimidazole,-3.183
C=C(CC(C)(C)c1ccccc1)c1ccccc1,"2,4-Diphenyl-4-methyl-1-pentene",-6.012
C/C=C/C(=O)C1=C(C)C=CCC1(C)C,–,-3.005
O=C1[C@H](CC[C@H](O)c2ccc(F)cc2)[C@@H](c2ccc(O)cc2)N1c1ccc(F)cc1,Ezetimibe,-4.685
COc1ccccc1C(=O)NS(=O)(=O)c1ccc(C(=O)NC2CC2)cc1,Cyprosulfamide,-4.476
O=S1(=O)N=C(Nc2ccccc2)c2ccccc21,"1,1-Dioxo-N-phenyl-1,2-benzothiazol-3-amine",-3.713
OCC1N=C(O)C(CO)N=C1O (configuration not stated),"3,6-Bis(hydroxymethyl)-3,6-dihydropyrazine-2,5-diol",-1.709
c1ccc(SCCSc2ccccc2)cc1,"1,2-Bis(phenylthio)ethane",-7.091

Values as listed in the OPERA 2.9 repository of K. Mansouri.